Reference: patent publication US20240083981A1, “TREATMENT OF HERPES SIMPLEX VIRUS INFECTION” (priority 2022, published 2024)

Assays:
[1] = target: glycoprotein D (gD) of herpes simplex virus-1 (HSV-1), on infectious virus (herpes simplex virus-1 (HSV-1)) (UniProt Q69091); assay: cell-based or functional assay
[2] = target: glycoprotein D (gD) of herpes simplex virus-2 (HSV-2), on infectious virus (herpes simplex virus-2 (HSV-2)) (UniProt P03172); assay: cell-based or functional assay

UB-621 (anti-HSV-gD mAb) (antibody)
IC50, inhibition of clinical isolate HSV-1 Bethesda (cell viability assay, Vero cells) [1]: 1.87 nM | IC50, inhibition of clinical isolate HSV-1 RH (cell viability assay, Vero cells) [1]: 2.38 nM | IC90, inhibition of clinical isolate HSV-1 Bethesda (cell viability assay, Vero cells) [1]: 9.52 nM | IC90, inhibition of clinical isolate HSV-1 RH (cell viability assay, Vero cells) [1]: 6.14 nM | inhibition of cell-to-cell spread, plaque formation by HSV-1 gE-GFP reporter virus in Vero cells [1]: 1000 nM | IC50, inhibition of clinical isolate HSV-2 Bethesda (cell viability assay, Vero cells) [2]: 13.6 nM | IC50, inhibition of clinical isolate HSV-2 IC (ACV-resistant; cell viability assay, Vero cells) [2]: 11.4 nM | IC50, inhibition of clinical isolate HSV-2 JA-1 (cell viability assay, Vero cells) [2]: 4.31 nM | IC50, inhibition of clinical isolate HSV-2 JA-2 (cell viability assay, Vero cells) [2]: 12.7 nM | IC50, inhibition of clinical isolate HSV-2 JA-3 (cell viability assay, Vero cells) [2]: 18.3 nM | IC50, inhibition of clinical isolate HSV-2 MO (cell viability assay, Vero cells) [2]: 8.05 nM | IC50, inhibition of clinical isolate HSV-2 poly-mut (polymerase mutant; cell viability assay, Vero cells) [2]: 27.1 nM | IC90, inhibition of clinical isolate HSV-2 Bethesda (cell viability assay, Vero cells) [2]: 22.4 nM | IC90, inhibition of clinical isolate HSV-2 IC (ACV-resistant; cell viability assay, Vero cells) [2]: 20.9 nM | IC90, inhibition of clinical isolate HSV-2 JA-1 (cell viability assay, Vero cells) [2]: 18.2 nM | IC90, inhibition of clinical isolate HSV-2 JA-2 (cell viability assay, Vero cells) [2]: 26.7 nM | IC90, inhibition of clinical isolate HSV-2 JA-3 (cell viability assay, Vero cells) [2]: 31.6 nM | IC90, inhibition of clinical isolate HSV-2 MO (cell viability assay, Vero cells) [2]: 15.2 nM | IC90, inhibition of clinical isolate HSV-2 poly-mut (polymerase mutant; cell viability assay, Vero cells) [2]: 69.8 nM
